Data reported in patent US9259479B2, “Treatment for comorbid diabetes with chronic kidney disease” (Eli Lilly and Company, priority 2012, dated 2016).

Columns and labels:
[1] = 5/6 nephrectomized rat study: pharmacokinetics after intravenous injection; assay type: in vivo, Sprague Dawley male rats; conditions: for AUC(0-∞) / CL (clearance) / Vss (steady-state volume of distribution) / C0: 10 nmol/kg IV, mean; for C0: read-out: C0 (concentration at time zero)
[2] = for AUC(0-∞) / CL/F / Dose-normalized AUC(0-∞) / Dose-normalized Cmax / Vss/F / t1/2 / Tmax / Cmax: single SC 2.9 nmol/kg; for Tmax: median; for Cmax: serum
[3] = Pharmacokinetic comparison in STZ-treated diabetic rats, single SC injection
[4] = mild renal impairment, geometric mean
[5] = moderate renal impairment, geometric mean
[6] = normal renal function, geometric mean
[7] = severe renal impairment, geometric mean
[8] = single dose, cohorts by renal function
[9] = hex (hexameric, Zn/m-cresol) formulation, SC 9.3 nmol/kg
[10] = hex (hexameric, Zn/m-cresol) formulation, SC 56.8 nmol/kg
[11] = hex (hexameric, Zn/m-cresol) formulation, SC 93 nmol/kg
[12] = hex (hexameric, Zn/m-cresol) formulation, SC 568 nmol/kg
[13] = mono (monomeric, PBS) formulation, SC 9.3 nmol/kg
[14] = mono (monomeric, PBS) formulation, SC 56.8 nmol/kg
[15] = mono (monomeric, PBS) formulation, SC 93 nmol/kg
[16] = mono (monomeric, PBS) formulation, SC 568 nmol/kg

PEG20 kDa-LysB28 insulin lispro [PEG20kDa-LysB28 insulin lispro]
AUC(0-∞) ([1]; 5/6 nephrectomized rats): 0.305 µM·h | CL (clearance) ([1]; 5/6 nephrectomized rats): 0.55 mL/min/kg | Vss (steady-state volume of distribution) ([1]; 5/6 nephrectomized rats): 0.050 L/kg | C0 ([1]; 5/6 nephrectomized rats): 295 nM | impact of nephrectomy on clearance ([1]; 5/6 nephrectomized vs sham rats): no statistically significant impact of nephrectomy | statistical difference of PK parameters between 5/6 and sham ([1]; 5/6 nephrectomized vs sham rats, table footnote): None of PEG(20 kDa)-insulin lispro parameters are statistically significantly different | AUC(0-∞) ([1]; sham rats): 0.287 µM·h | CL (clearance) ([1]; sham rats): 0.583 mL/min/kg | Vss (steady-state volume of distribution) ([1]; sham rats): 0.059 L/kg | C0 ([1]; sham rats): 239 nM | Fraction of Dialysis Elimination ([2]; ESRD, hemodialysis, high-flux polysulfone membranes, geometric mean): 0.128^c | AUC(0-∞) ([2]; ESRD, geometric mean): 0.0734 µM·h | CL/F ([2]; ESRD, geometric mean): 3.10 L/h | Dose-normalized AUC(0-∞) ([2]; ESRD, geometric mean): 0.323 pmol · hr/L/pmol | Dose-normalized Cmax ([2]; ESRD, geometric mean): 0.00518 pmol/L/pmol | Vss/F ([2]; ESRD, geometric mean): 210 L | t1/2 ([2]; ESRD, geometric mean): 45.7 h | Tmax ([2]; ESRD): 24.00 h | Cmax ([2]; ESRD, geometric mean): 1.18 nM | AUC(0-∞) [2, 4]: 0.11 µM·h | CL/F [2, 4]: 2.21 L/h | Dose-normalized AUC(0-∞) [2, 4]: 0.452 pmol · hr/L/pmol | Dose-normalized Cmax [2, 4]: 0.00863 pmol/L/pmol | Vss/F [2, 4]: 121 L | t1/2 [2, 4]: 37.2 h | Tmax ([2]; mild renal impairment): 12.00 h | Cmax [2, 4]: 2.09 nM | AUC(0-∞) [2, 5]: 0.0904 µM·h | CL/F [2, 5]: 2.33 L/h | Dose-normalized AUC(0-∞) [2, 5]: 0.429 pmol · hr/L/pmol | Dose-normalized Cmax [2, 5]: 0.00623 pmol/L/pmol | Vss/F [2, 5]: 154 L | t1/2 [2, 5]: 43.7 h | Tmax ([2]; moderate renal impairment): 24.01 h | Cmax [2, 5]: 1.31 nM | AUC(0-∞) [2, 6]: 0.0841 µM·h | CL/F [2, 6]: 2.84 L/h | Dose-normalized AUC(0-∞) [2, 6]: 0.352 pmol · hr/L/pmol | Dose-normalized Cmax [2, 6]: 0.00713 pmol/L/pmol | Vss/F [2, 6]: 142 L | t1/2 [2, 6]: 34.9 h | Tmax ([2]; normal renal function): 12.00 h | Cmax [2, 6]: 1.7 nM | AUC(0-∞) [2, 7]: 0.0824 µM·h | CL/F [2, 7]: 2.36 L/h | Dose-normalized AUC(0-∞) [2, 7]: 0.424 pmol · hr/L/pmol | Dose-normalized Cmax [2, 7]: 0.00532 pmol/L/pmol | Vss/F [2, 7]: 171 L | t1/2 [2, 7]: 42.4 h | Tmax ([2]; severe renal impairment): 30.00 h | Cmax [2, 7]: 1.03 nM | half-life (t1/2) across the cohorts [2, 8]: statistically similar across the cohorts | time-course profile of serum concentration across cohorts [2, 8]: statistically similar in each cohort of subjects | AUC [3, 9]: 0.075 ± 0.0025 µM·h | CL/F [3, 9]: 2.07 ± 0.067 mL/min/kg | Cmax [3, 9]: 2.4 ± 0.3 nM | Tmax [3, 9]: 12 ± 0 h | AUC [3, 10]: 0.281 ± 0.016 µM·h | CL/F [3, 10]: 3.33 ± 0.17 mL/min/kg | Cmax [3, 10]: 12.4 ± 0.7 nM | Tmax [3, 10]: 9.0 ± 3.5 h | AUC [3, 11]: 0.541 ± 0.135 µM·h | CL/F [3, 11]: 3 ± 0.67 mL/min/kg | Cmax [3, 11]: 35 ± 12 nM | Tmax [3, 11]: 12 ± 0 h | AUC [3, 12]: 7.45 ± 0.34 µM·h | CL/F [3, 12]: 1.27 ± 0.067 mL/min/kg | Cmax [3, 12]: 323 ± 48 nM | Tmax [3, 12]: 12 ± 0 h | AUC [3, 13]: 0.0409 ± 0.0075 µM·h | CL/F [3, 13]: 3.83 ± 0.67 mL/min/kg | Cmax [3, 13]: 1.6 ± 0.4 nM | Tmax [3, 13]: 9.0 ± 3.5 h | AUC [3, 14]: 0.228 ± 0.024 µM·h | CL/F [3, 14]: 4.17 ± 0.5 mL/min/kg | Cmax [3, 14]: 11.4 ± 1.1 nM | Tmax [3, 14]: 10.5 ± 3.0 h | AUC [3, 15]: 0.506 ± 0.122 µM·h | CL/F [3, 15]: 3.17 ± 0.67 mL/min/kg | Cmax [3, 15]: 26.4 ± 7 nM | Tmax [3, 15]: 10.5 ± 3.0 h | AUC [3, 16]: 6.31 ± 1.7 µM·h | CL/F [3, 16]: 1.6 ± 0.467 mL/min/kg | Cmax [3, 16]: 281 ± 96 nM | Tmax [3, 16]: 12 ± 0 h | PK profile of the two molecules compared ([3]; monomeric and hexameric formulation conditions): statistically similar

Read-outs that look alike come from different tables or passages of the source. Marks after values point to notes of the source that are not given here.
